According to patent US12616672B2, “Methods for assessing risk of cardiovascular disease and methods and compounds for use in treating or preventing cardiovascular disease” (Queen Mary University of London, priority 2017, dated 2026):

System: healthy volunteer peripheral blood neutrophils, monocytes and platelets
Test: Healthy volunteer whole blood incubated with RvDn-3 DPA then PAF, flow cytometry of activation markers
Format: cell-based, human
Settings: n=5 donors
Procedure: Blood was collected from healthy volunteers and incubated with RvD2n-3 DPA, RvD5n-3 DPA (0.1 nM, 1 nM or 10 nM) or vehicle (PBS) for 15 min (37° C.) then with PAF (100 ng/ml; 30 min; 37° C.). Cell activation and leukocyte-platelet aggregates were assessed using flow cytometry. (A,B) Representative histograms depicting neutrophil (A) CD11b and (B) CD62P expression. (C,D) Cumulative neutrophil ([…]) CD11b and (D) CD62P expression. (E,F) Monocyte (E) CD11b and (F) CD62P expression. Results are mean of n=5 per time point and expressed as percentage change from PAF incubated cells. *p<0.05 compared to PAF using one-sample t test, followed by Sidak correction of p values.
Blood was collected from healthy volunteers and incubated with RvD2n-3 DPA, RvD5n-3 DPA (0.1 nM, 1 nM or 10 nM) or vehicle (PBS) for 15 min (37° C.) then with PAF (100 ng/ml; 30 min; 37° C.). Cell activation and leukocyte-platelet aggregates were assessed using flow cytometry. (A,B) Images depicting platelet monocyte (A) and (B) platelet-neutrophil aggregates. Results are representative of n=3 distinct experiments. (C,D) Cumulative neutrophil (C) CD11b and (D) CD62P expression. […] Results are mean of n=5 per condition and expressed as percentage change from PAF incubated cells. *p<0.05 compared to PAF using Wilcoxon Signed Rank Test. […] Adhesion molecule expression evaluated using flow cytometry. […]

## CC/C=C\CC(O)/C=C/C=C\CC/C=C/C(O)C(O)CCCCCC(=O)O (stereo not shown) [RvD1n-3 DPA, 7,8,17-trihydroxy-9,11,13,15E,19Z-docosapentaenoic acid]
  regulation of neutrophil, monocyte and platelet responses: only partially regulate
